Amino acid sequences for entries named in this document (tags omitted). Residues count along the entry.
UniProt C7C422, 29-270 limits assumed: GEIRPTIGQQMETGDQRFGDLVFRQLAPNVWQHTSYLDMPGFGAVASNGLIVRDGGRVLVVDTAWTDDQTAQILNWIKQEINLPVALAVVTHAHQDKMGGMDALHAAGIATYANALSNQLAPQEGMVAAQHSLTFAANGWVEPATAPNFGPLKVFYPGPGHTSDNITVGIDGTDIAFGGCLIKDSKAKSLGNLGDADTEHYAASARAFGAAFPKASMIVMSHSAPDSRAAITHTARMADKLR
UniProt C7C422, 29-270 V88L/M154L: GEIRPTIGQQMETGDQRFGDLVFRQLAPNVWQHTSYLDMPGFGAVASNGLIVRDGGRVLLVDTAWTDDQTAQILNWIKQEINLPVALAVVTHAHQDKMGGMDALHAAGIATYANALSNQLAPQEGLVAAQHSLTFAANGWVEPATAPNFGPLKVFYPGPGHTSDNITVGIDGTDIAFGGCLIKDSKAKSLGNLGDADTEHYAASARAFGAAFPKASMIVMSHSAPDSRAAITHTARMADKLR

According to patent US20250205259A1, “CLASS OF 7-((FIVE-MEMBERED HETEROCYCLIC)METHYL)-8-CARBOXYLIC ACID-BENZO CYCLIC BORATE DERIVATIVES AND USES THEREOF” (priority 2022, published 2025):

What was measured:
NDM-1 = NDM-1 (Klebsiella pneumoniae, UniProt C7C422); assay: Inhibitory activity on MBL, fluorescent substrate FC-5; assay type: biochemical; settings: read-out: Inhibitory activity on MBL NDM-1 (IC50 class)
AmpC = AmpC (UniProt P24735); assay: Inhibitory activity on SBL, fluorescent substrate FC-5; settings: read-out: Inhibitory activity on SBL AmpC (IC50 class)
NDM-5 = NDM-5 (Klebsiella pneumoniae, UniProt C7C422, M154L/V88L); assay: Inhibitory activity on MBL, fluorescent substrate FC-5; assay type: biochemical; settings: read-out: Inhibitory activity on MBL NDM-5 (IC50 class)

O=C(O)c1c(Cn2ncc3c2CNC3)ccc2c1OB(O)CC2 [Compound 66]
IC50 (NDM-1): 0.01 to 1 µM
IC50 (AmpC): > 100 µM
IC50 (NDM-5): 1 to 100 µM
